# Test system: EGFR and amphiregulin
# Test: Confocal microscopy of coexistence of EGFR and amphiregulin
# Assay type: cell-based, Human
# Conditions: 2 μM sorafenib, 72 hours
smiles,measurement,setting,value
CNC(=O)c1cc(Oc2ccc(NC(=O)Nc3ccc(Cl)c(C(F)(F)F)c3)cc2)ccn1 [Sorafenib],coexistence of EGFR and amphiregulin,SULF2-N491K cells,did not show increased coexistence
same,coexistence of EGFR and amphiregulin,SULF2-WT cells,increased
same,coexistence of EGFR and amphiregulin,vector cells,coexisted around the nucleus
